Data reported in article PMC5059467, “Anti-tubulin drugs conjugated to anti-ErbB antibodies selectively radiosensitize” (Nature Communications, 2016).

What was measured:
[1] = T-DM1 0.25 nmol day 0 with 2.5 Gy days 1, 2 and 3
OE19 cells = test: Alamar blue cell viability, OE19 cells; assay type: cell-based, human; conditions: HER2+ OE19 cells, Fig. 3c

For ado-trastuzumab emtansine [T-DM1], the mouse body weight [1] was “maintained their weight” and the “cytotoxic potency compared with paclitaxel, cisplatin, trastuzumab, lapatinib, erlotinib” value (OE19 cells) was “more potent cytotoxic drug”.
